We go through one substance from patent US20240261374A1, “PHARMACEUTICAL COMPOSITION AND KIT COMPRISING AN IMMUNOMODULATORY SUBSTANCE FOR TREATING DISEASES” (ellennbe GmbH, priority 2021, published 2024).

The test system of the test is rheumatoid arthritis. The experiment in a line: Treatment of patients suffering from rheumatoid arthritis (CRP, tender/swollen joints, HAQ, patient's statement). In kind it is in vivo, human. The conditions noted are these: Patient 7; not the treatment of the invention. From the text: The investigation and determination of the joint condition has been performed by a physician or rheumatologist. A tender joint (TJ) was pressure sensitive but not necessarily swollen. […] The amount of TJ and SJ was counted. A reduction in the amounts of TJ and/or SJ, respectively, was an indication for a reduction in inflammation, mitigation of the disease and an improvement of the patient's health condition.
The CRP (C-reactive protein) is the most important blood laboratory value for detecting and monitoring inflammation in the body. It was determined by a certified laboratory. A low CRP indicates the absence of an inflammation, while a high CRP is indicative for an inflammation to be present.
The HAQ (Health assessment Questionnaire) is a standardized questionnaire to assess disability due to inflammatory rheumatic joint disease like polyarthritis, rheumatoid arthritis, psoriatic arthritis, polymyalgia rheumatic etc. Patients completed this questionnaire themselves, assessing their ability to perform the following activities in eight daily functional domains: Dressing, getting up, eating, walking, personal hygiene, handing objects, grasping, other activities.
The functional disability index (HAQ) is the average of the highest numerical values reported for each of the eight different domains. High HAQ-scores correspond to a high degree of disability. […]

With “abatacept: selective immunosuppressive inhibiting T-cell activation”, the “Effectiveness of earlier or basic treatment (patient history)” value is “insufficient effectiveness”.
